Experimental findings from paper PMC4619462, “Description of the first fungal dye-decolorizing peroxidase oxidizing manganese(II)” (Applied Microbiology and Biotechnology, 2015) are described below.

In the series the test system is CCn1c(=NN=c2sc3cc(S(=O)(=O)O)ccc3n2CC)sc2cc(S(=O)(=O)O)ccc21. Put plainly: purified protein. The settings on record: 0.25 mM H2O2, 0.1 M tartrate pH 3.5, 25 °C.

As for Pleos-DyP1 (Pleurotus ostreatus PC15), the Km is 779 ± 69 µM, the kcat was 208 ± 8 s⁻¹ and the kcat/Km stood at 267000 M⁻¹ s⁻¹.

As usually defined, the Km is the substrate concentration at which the rate is half of its maximum. Usually kcat stands for the maximal rate divided by the concentration of active sites. What is called kcat/Km is the turnover number divided by the Michaelis constant.
